The text below walks through data of patent US10624947B2, “Bactericidal peptides and uses thereof” (INDIANA UNIVERSITY RESEARCH AND TECHNOLOGY CORPORATION, priority 2016, dated 2020).

Structures are written as SMILES. In brackets after ≈: the same amount, converted by molar mass.

The subject of this experiment is Escherichia coli. The conditions noted are these: E. coli ATCC 25922.

For `CC[C@H](C)[C@H](NC(=O)[C@H](CCCNC(=N)N)NC(=O)[C@H](CS)NC(=O)[C@@H]1CCCN1C(=O)[C@H](Cc1ccc(O)cc1)NC(=O)[C@@H]1CCCN1C(=O)[C@@H](NC(=O)[C@H](CCC(N)=O)NC(=O)CNC(=O)[C@H](Cc1ccc(O)cc1)NC(=O)[C@H](CCC(=O)O)NC(=O)[C@H](CCCNC(=N)N)NC(=O)[C@H](Cc1c[nH]c2ccccc12)NC(=O)[C@H](C)NC(=O)[C@H](CCCCN)NC(=O)[C@H](Cc1c[nH]c2ccccc12)NC(=O)[C@@H](NC(=O)[C@H](CCCCN)NC(=O)[C@H](CCCNC(=N)N)NC(=O)CNC(=O)[C@@H](NC(=O)[C@H](CCCCN)NC(=O)CNC(=O)[C@@H](NC(=O)[C@H](CCCCN)NC(=O)[C@H](CCCNC(=N)N)NC(=O)CNC(=O)[C@H](CC(C)C)NC(=O)[C@H](CCCCN)NC(=O)[C@H](CCC(N)=O)NC(=O)[C@@H](NC(=O)[C@H](CCCNC(=N)N)NC(=O)[C@H](CCCCN)NC(=O)[C@H](CCCNC(=N)N)NC(=O)[C@@H](NC(=O)[C@H](CCCCN)NC(=O)[C@H](CCCNC(=N)N)NC(=O)[C@H](Cc1ccccc1)NC(=O)[C@H](CCCCN)NC(=O)[C@H](CCCCN)NC(=O)[C@H](CCCNC(=N)N)NC(=O)[C@H](CC(C)C)NC(=O)CN)[C@@H](C)O)[C@@H](C)CC)[C@@H](C)CC)[C@@H](C)O)C(C)C)[C@@H](C)CC)C(=O)O` [CAP-11, reference compound], the Minimal inhibitory concentration is 4 µg/mL (≈ 0.757 µM).
